We go through one compound from BindingDB's records for doi:10.1073/pnas.89.8.3630 (Synaptic Pharmaceutical, 1992).

Amino acid sequences for entries named in this document (tags omitted).
UniProt P28222, whole entry: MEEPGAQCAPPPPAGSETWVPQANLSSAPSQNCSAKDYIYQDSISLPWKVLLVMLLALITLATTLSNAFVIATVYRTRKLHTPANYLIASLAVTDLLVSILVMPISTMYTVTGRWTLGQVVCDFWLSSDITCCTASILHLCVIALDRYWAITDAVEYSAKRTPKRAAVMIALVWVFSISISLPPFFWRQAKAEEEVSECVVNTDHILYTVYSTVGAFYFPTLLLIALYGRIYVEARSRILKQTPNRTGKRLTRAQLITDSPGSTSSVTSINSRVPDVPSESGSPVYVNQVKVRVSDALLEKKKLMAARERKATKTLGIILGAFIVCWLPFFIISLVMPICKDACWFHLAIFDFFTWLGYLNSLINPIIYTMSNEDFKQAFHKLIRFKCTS
UniProt Q8MI13, whole entry: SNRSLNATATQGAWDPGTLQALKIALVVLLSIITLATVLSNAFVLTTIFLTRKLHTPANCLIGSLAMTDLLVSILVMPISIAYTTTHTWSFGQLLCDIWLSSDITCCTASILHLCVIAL

Test [1] concerns the target 5-hydroxytryptamine receptor 1B (Homo sapiens, UniProt P28222).
Test [2] addresses 5-hydroxytryptamine 1D receptor (Bos taurus, UniProt Q8MI13).

Values joined by “and” are separate entries in the source; they are usually repeats but may differ in a detail not shown here. Equal values may be shown once.

Regarding `COC(=O)[C@@H]1[C@H]2C[C@H]3c4[nH]c5ccccc5c4CCN3C[C@@H]2CC[C@@H]1O` [yohimbic acid methyl ester], the inhibition constant (Ki) in test [1] is 16 nM and 22 nM; in test [2] it was 20 nM.

Broadly, the Ki is the dissociation constant of the complex between target and ligand, obtained from inhibition or displacement. A low value points to higher affinity.
